Measured values reported in PubChem BioAssay AID624267 (The Scripps Research Institute Molecular Screening Center, 2012).
This is a selection; strong and weak results do not stand in their true shares. The source made the active and inactive calls. Rule as the data show it: active = inhibition above about 21%; inactive = the rest.

Sequences of proteins named here, by UniProt entry; tags and fusion partners are left off.
UniProt O43353, whole entry: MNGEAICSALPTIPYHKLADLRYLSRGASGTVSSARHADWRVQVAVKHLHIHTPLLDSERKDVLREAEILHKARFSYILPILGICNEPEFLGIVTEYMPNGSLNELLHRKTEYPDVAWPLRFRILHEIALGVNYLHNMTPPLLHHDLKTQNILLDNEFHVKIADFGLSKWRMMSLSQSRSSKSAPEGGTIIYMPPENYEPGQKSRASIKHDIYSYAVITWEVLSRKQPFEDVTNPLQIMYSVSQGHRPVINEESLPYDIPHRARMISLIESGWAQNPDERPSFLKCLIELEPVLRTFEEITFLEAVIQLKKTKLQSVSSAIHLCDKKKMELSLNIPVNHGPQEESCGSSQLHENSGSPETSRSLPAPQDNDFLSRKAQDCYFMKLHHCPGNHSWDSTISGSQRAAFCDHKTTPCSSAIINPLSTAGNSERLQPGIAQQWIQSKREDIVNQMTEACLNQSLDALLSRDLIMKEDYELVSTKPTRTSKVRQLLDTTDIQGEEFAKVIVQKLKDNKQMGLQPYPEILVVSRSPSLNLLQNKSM

Biological target: Receptor-interacting serine/threonine-protein kinase 2 (Homo sapiens) (UniProt O43353)
Test: inhibitors of RIPK2 association with NOD2 – fluorescence, CHO cells, BLA complementation, primary screen (AID 624267);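 also: 0% = vehicle only and 100% = reference blocker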
Conditions: CHO BLA complementation NOD2-RIPK2, CCF4 ratio; at 4.98 µM; hits give high values

Row | Structure (SMILES) | inhibition
1 | CN1CCC(Nc2ccc(Cl)cc2)CC1 | inactive: -1.03%
2 | CCC(CO)(C(=O)OC1CN2CCC1CC2)c1ccccc1 (stereo not drawn) | inactive: 4.33%
3 | COc1cc(OC)cc(C(=O)NCC2(N3CCOCC3)CCCCC2)c1 | inactive: -12.1%
4 | COc1cccc(C(c2nnnn2C2CCCC2)N2CCC(n3c(=O)[nH]c4ccccc43)CC2)c1OC (stereo not drawn) | inactive: -4.93%
5 | COc1cccc(C(=O)N(c2cc(C)cc(C)c2)C2CCN(C(=O)OC(C)(C)C)CC2)c1 | inactive: -2.88%
6 | O=c1[nH]c2ccccc2n1C1CCN(C(c2cc3ccccc3o2)c2nnnn2C2CCCC2)CC1 (stereo not drawn) | inactive: 5.35%
7 | CCCOc1ccc(C(=O)NCC2(N(C)C)CCCCC2)cc1 | inactive: -1.03%
8 | CC(C)(C)OC(=O)N1CCC(Nc2ccccc2)CC1 | inactive: -9.15%
9 | O=C(O)C1(Nc2ccccc2)CCN(Cc2ccccc2)CC1 | inactive: -5.94%
10 | NN(c1ccccc1)C1CCN(CCc2ccccc2)CC1 | inactive: 13.7%
11 | CCOc1ncccc1C(=O)NCC1(N2CCOCC2)CCCCC1 | inactive: 3.73%
12 | CN1CCC(Nc2ccc(F)c(Cl)c2)CC1 | inactive: 3.78%
13 | O=C(NCC1(N2CCCCC2)CCCCC1)c1ccco1 | inactive: -13.3%
14 | CN(C)c1ccc(C(=O)NCC2(N3CCCCC3)CCCCC2)cc1 | inactive: 4.58%
15 | Cn1c(=O)[nH]cc(N(CCCl)CCCl)c1=O | inactive: -5.71%
16 | Cc1ccccc1NC1(C#N)CCN(Cc2ccccc2)CC1 | inactive: -7.58%
17 | COc1ccc(C(c2nnnn2C2CCCCC2)N2CCC(n3c(=O)[nH]c4ccccc43)CC2)cc1 (stereo not drawn) | inactive: 11.6%
18 | CCN1CCC(Nc2cccc(F)c2)CC1 | inactive: 5.45%
19 | CC(C)(C)n1nnnc1C(c1ccnc2ccccc12)N1CCC(n2c(=O)[nH]c3ccccc32)CC1 (stereo not drawn) | inactive: -20.9%
20 | Cc1ccc(NC2(C#N)CCN(Cc3ccccc3)CC2)cc1 | inactive: -5.92%
21 | Cc1ccc(C(=O)NCC2(N3CCCCC3)CCCCC2)o1 | inactive: -4.38%
22 | Fc1ccccc1NC1CCN(Cc2ccccc2)CC1 | inactive: 8.14%

Row | Structure (SMILES) | inhibition
23 | COc1cc(OC)cc(C(=O)NCC2(N3CCCCC3)CCCCC2)c1 | inactive: -2.42%
24 | O=c1[nH]c2ccccc2n1C1CCN(C(c2ccnc3ccccc23)c2nnnn2C2CCCCC2)CC1 (stereo not drawn) | inactive: 3.97%
25 | COc1cccc(C(c2nnnn2C2CCCCC2)N2CCC(n3c(=O)[nH]c4ccccc43)CC2)c1OC (stereo not drawn) | inactive: -11.2%
26 | CC(=O)N(c1ccccc1)C1CCNCC1 | inactive: -13.7%
27 | CCC(c1nnnn1C1CCCCC1)N1CCC(n2c(=O)[nH]c3ccccc32)CC1 (stereo not drawn) | inactive: -5.19%
28 | CC(C)(C)n1nnnc1C(c1cccc2ccccc12)N1CCC(n2c(=O)[nH]c3ccccc32)CC1 (stereo not drawn) | inactive: 1.25%
29 | c1ccc(CN2CCC(Nc3ccccc3)CC2)cc1 | inactive: 1.32%
30 | CCCN1CCC(Nc2cc(OC)cc(OC)c2)CC1 | inactive: 5.47%
31 | O=c1[nH]c2ccccc2n1C1CCN(C(c2ccccc2)c2nnnn2C2CCCC2)CC1 (stereo not drawn) | inactive: 3.27%
32 | Cc1cc(N(CCCl)CCCl)ccc1C=O | inactive: 0.57%
33 | CN(C)C1(CNC(=O)c2cccc(C#N)c2)CCCCC1 | inactive: -17%
34 | CC(C)(C)OC(=O)N1CCC(N(C(=O)c2ccccc2)c2ccc(Cl)cc2)CC1 | inactive: -22.7%
35 | N#Cc1ccc(C(=O)NCC2(N3CCCCC3)CCCCC2)cc1 | inactive: 0.63%
36 | CCCCn1nnnc1C(c1cccc(OC)c1OC)N1CCC(n2c(=O)[nH]c3ccccc32)CC1 (stereo not drawn) | inactive: -9.34%
37 | O=C(OC1CN2CCC1CC2)C1c2ccccc2C=Cc2ccccc21 (stereo not drawn) | inactive: 0.02%
38 | O=c1[nH]c2ccccc2n1C1CCN(C(c2cccs2)c2nnnn2C2CCCC2)CC1 (stereo not drawn) | inactive: 0.94%
39 | N/C(=N\O)c1c(N)no[n+]1[O-] | inactive: -10%
40 | CCOC(=O)N1CCC(Nc2ccc(C)cc2)CC1 | inactive: -0.92%
41 | COc1cccc(C(c2nnnn2C(C)(C)C)N2CCC(n3c(=O)[nH]c4ccccc43)CC2)c1OC (stereo not drawn) | inactive: -1.69%
42 | COc1ccc(C(=O)NCC2(N3CCOCC3)CCCCC2)cc1OC | inactive: -5.5%
43 | O=c1[nH]c2ccccc2n1C1CCN(C(c2ccnc3ccccc23)c2nnnn2C2CCCC2)CC1 (stereo not drawn) | inactive: 0.93%
44 | O=c1[nH]c2ccccc2n1C1CCN(C(c2cccs2)c2nnnn2C2CCCCC2)CC1 (stereo not drawn) | inactive: 0.72%

Row | Structure (SMILES) | inhibition
45 | O=C(NCC1(N2CCOCC2)CCCCC1)c1cc(Br)ccc1Cl | inactive: -6.61%
46 | CCCCn1nnnc1C(c1ccccc1)N1CCC(n2c(=O)[nH]c3ccccc32)CC1 (stereo not drawn) | inactive: 13.2%
47 | COc1cc(C(=O)NCC2(N3CCOCC3)CCCCC2)cc(OC)c1C | inactive: -12.2%
48 | Cc1ccc(C(=O)NCC2(N(C)C)CCCCC2)o1 | inactive: -9.8%
49 | CCCOc1ccc(C(=O)NCC2(N(C)C)CCCCC2)cc1OC | inactive: 3.44%
50 | COc1ccc(C(c2nnnn2C2CCCC2)N2CCC(n3c(=O)[nH]c4ccccc43)CC2)cc1 (stereo not drawn) | inactive: -6.98%
51 | CN1CCC(Nc2cccc(F)c2)CC1 | inactive: -10.3%
52 | O=C(NCC1(N2CCCCC2)CCCCC1)c1cncc(Br)c1 | inactive: -6.16%
53 | CCCCn1nnnc1C(c1ccnc2ccccc12)N1CCC(n2c(=O)[nH]c3ccccc32)CC1 (stereo not drawn) | inactive: 1.16%
54 | COc1cc(OC)c(C(=O)NCC2(N(C)C)CCCCC2)cc1OC | inactive: -9.52%
55 | CCC(c1nnnn1C(C)(C)C)N1CCC(n2c(=O)[nH]c3ccccc32)CC1 (stereo not drawn) | inactive: -8.18%
56 | O=C(NCC1(N2CCOCC2)CCCCC1)c1cc(F)c(F)cc1Cl | inactive: -3.05%
57 | COc1ccc(CN(CCCl)CCCl)cc1Cl | inactive: -2.87%
58 | CN(C)c1cccc(C(=O)NCC2(N3CCCCC3)CCCCC2)c1 | inactive: 2.19%
59 | CCCCn1nnnc1C(c1ccccc1OC(F)(F)F)N1CCC(n2c(=O)[nH]c3ccccc32)CC1 (stereo not drawn) | inactive: -6.65%
60 | CC(C)c1ccc(NC2CCN(C(=O)OC(C)(C)C)CC2)cc1 | inactive: -1.97%
61 | CN1CCN(CCOC(=O)C(O)(c2ccccc2)c2ccccc2)CC1 | inactive: -5.32%
62 | COc1ccc(NC2CCN(C(=O)OC(C)(C)C)CC2)cc1 | inactive: 1.53%
63 | CC(C)c1ccc(C(=O)NCC2(N3CCOCC3)CCCCC2)cc1 | inactive: 7.54%
64 | CCCCn1nnnc1C(c1cccc2ccccc12)N1CCC(n2c(=O)[nH]c3ccccc32)CC1 (stereo not drawn) | inactive: -6.44%
65 | COc1cc(C(=O)NCC2(N3CCCCC3)CCCCC2)ccc1OC(F)F | inactive: -4.1%
66 | O=C(NCC1(N2CCOCC2)CCCCC1)c1cc(=O)[nH]c2ccccc12 | inactive: -7.31%

Row | Structure (SMILES) | inhibition
67 | O=C(NCC1(N2CCCCC2)CCCCC1)c1cccc(C(F)(F)F)c1 | inactive: 3.36%
68 | O=C(NCC1(N2CCCCC2)CCCCC1)c1cccc([N+](=O)[O-])c1 | inactive: 1.38%
69 | CSc1ccc(C(=O)NCC2(N3CCOCC3)CCCCC2)cc1 | inactive: -4.48%
70 | CCN1CCC(Nc2ccc(Cl)cc2)CC1 | inactive: -4.62%
71 | O=c1[nH]c2ccccc2n1C1CCN(C(c2ccccc2OC(F)(F)F)c2nnnn2C2CCCC2)CC1 (stereo not drawn) | inactive: 7.09%
72 | N#CC1(Nc2ccccc2)CCN(CCc2ccccc2)CC1 | inactive: 8.33%
73 | CC(C)(C)n1nnnc1C(c1ccccc1OC(F)(F)F)N1CCC(n2c(=O)[nH]c3ccccc32)CC1 (stereo not drawn) | inactive: -9.32%
74 | O=C(NCC1(N2CCCCC2)CCCCC1)c1ccc(OC(F)F)cc1 | inactive: 0.06%
75 | O=c1[nH]c2ccccc2n1C1CCN(C(c2cccc3ccccc23)c2nnnn2C2CCCC2)CC1 (stereo not drawn) | inactive: -10.6%
76 | CCOC(=O)N1CCC(Nc2cccc(C)c2)CC1 | inactive: -12.3%
77 | COc1cc(C(=O)NCC2(N(C)C)CCCCC2)ccc1OC(F)F | inactive: -12.8%
78 | O=c1[nH]c2ccccc2n1C1CCN(C(c2ccccc2)c2nnnn2C2CCCCC2)CC1 (stereo not drawn) | inactive: -7.06%
79 | CCCCn1nnnc1C(c1cc2ccccc2o1)N1CCC(n2c(=O)[nH]c3ccccc32)CC1 (stereo not drawn) | inactive: -9.55%
80 | O=P1(N(CCCl)CCCl)SCCCS1 | inactive: -6.01%
81 | CCCCOc1ccc(C(=O)NCC2(N3CCOCC3)CCCCC2)cc1 | inactive: -1.18%
82 | O=C(NCC1(N2CCCCC2)CCCCC1)c1ccc(F)cc1 | inactive: -50.2%
83 | COc1ccc(NC2CCN(CCc3ccccc3)CC2)c(OC)c1 | inactive: 4.76%
84 | CCOC(=O)N1CCC(Nc2ccc(F)cc2)CC1 | inactive: -9.57%
85 | CCOc1ccc(C)cc1CN(CCCl)CCCl | inactive: -10.4%
86 | CC(C)(C)n1nnnc1C(c1ccccc1)N1CCC(n2c(=O)[nH]c3ccccc32)CC1 (stereo not drawn) | inactive: -15.2%
87 | O=C1CCN(Cc2ccccc2)CC1 | inactive: -2.95%
88 | CCOC(=O)N1CCC(Nc2ccc(OC)cc2)CC1 | inactive: 3.77%

Row | Structure (SMILES) | inhibition
89 | CCCCn1nnnc1C(c1ccc(OC)cc1)N1CCC(n2c(=O)[nH]c3ccccc32)CC1 (stereo not drawn) | inactive: -11.7%
90 | O=C(NCC1(N2CCCCC2)CCCCC1)c1ccc(Cl)s1 | inactive: -0.02%
91 | N#CC1(Nc2ccccc2)CCN(Cc2ccccc2)CC1 | inactive: 7.55%
92 | O=C(OC1CN2CCC1CC2)C1c2ccccc2Oc2ccccc21 (stereo not drawn) | inactive: -0.36%
93 | O=c1[nH]c2ccccc2n1C1CCN(C(c2cc3ccccc3o2)c2nnnn2C2CCCCC2)CC1 (stereo not drawn) | inactive: -1.97%
94 | COc1ccc(Cl)cc1C(=O)NCC1(N2CCOCC2)CCCCC1 | inactive: -4.64%
95 | O=C(NCC1(N2CCOCC2)CCCCC1)c1cc2ccccc2o1 | inactive: 2.19%
96 | O=C(NCC1(N2CCCCC2)CCCCC1)c1ccc(Cl)nc1 | inactive: 7.3%
97 | O=c1[nH]c2ccccc2n1C1CCN(C(c2ccccc2OC(F)(F)F)c2nnnn2C2CCCCC2)CC1 (stereo not drawn) | inactive: -8.76%
98 | Cc1cc(C)cc(N(C(=O)c2ccccc2)C2CCN(C(=O)OC(C)(C)C)CC2)c1 | inactive: 2.76%
99 | CSc1ccccc1C(=O)NCC1(N2CCCCC2)CCCCC1 | inactive: 1.24%
100 | Cc1cccc(NC2(C#N)CCN(Cc3ccccc3)CC2)c1 | inactive: -17.5%
101 | O=C(NCC1(N2CCCCC2)CCCCC1)c1ccc(=O)[nH]c1 | inactive: 2.28%
102 | CCCCn1nnnc1C(CC)N1CCC(n2c(=O)[nH]c3ccccc32)CC1 (stereo not drawn) | inactive: -4.33%
103 | O=C(NCC1(N2CCCCC2)CCCCC1)c1cccs1 | inactive: -1.09%
104 | CCCCn1nnnc1C(c1cccs1)N1CCC(n2c(=O)[nH]c3ccccc32)CC1 (stereo not drawn) | inactive: 2.55%
105 | COc1ccc(C(=O)NCC2(N3CCCCC3)CCCCC2)cc1 | inactive: -4.43%
106 | COc1ccc(C(=O)NCC2(N3CCCCC3)CCCCC2)c(OC)c1OC | inactive: 2.61%
107 | CC(C)(C)OC(=O)N1CCC(N(C(=O)c2ccccc2)c2ccc(F)cc2)CC1 | inactive: -15.4%
108 | CCC(c1nnnn1C1CCCC1)N1CCC(n2c(=O)[nH]c3ccccc32)CC1 (stereo not drawn) | inactive: -5.4%
